# Experimental data published in patent EP0900207B1, “PYRAZINONE THROMBIN INHIBITORS” (MERCK & CO., INC., priority 1996, dated 1997).
# Molecular target: human α-thrombin (Homo sapiens, UniProt P00734)
# Experiment: In vitro proteinase inhibition assay, human α-thrombin (p-nitroanilide or fluorogenic substrate hydrolysis)
# Conditions: inhibitory activity against human thrombin; 25°C, TRIS buffer pH 7.4
# Experimental: Assays of human α-thrombin and human trypsin were performed by the methods substantially as described in Thrombosis Research, Issue No. 70, page 173 (1993) by S.D. Lewis et al.
# The assays were carried out at 25°C in 0.05 M TRIS buffer pH 7.4, 0.15 M NaCl, 0.1% PEG. Trypsin assays also contained 1 mM CaCl2. In assays wherein rates of hydrolysis of a p-nitroanilide (pna) substrate were determined, a Thermomax 96-well plate reader was used was used to measure (at 405 nm) the time dependent appearance of p-nitroaniline. sar-PR-pna was used to assay human α-thrombin (Km=125 µM) and bovine trypsin (Km=125 µM). p-Nitroanilide substrate concentration was determined from measurements of absorbance at 342 nm using an extinction coefficient of 8270 cm^-1M^-1.
# In certain studies with potent inhibitors (Ki < 10 nM) where the degree of inhibition of thrombin was high, a more sensitive activity assay was employed. In this assay the rate of thrombin catalyzed hydrolysis of the fluorogenic substrate Z-GPR-afc (Km=27 µM) was determined from the increase in fluorescence at 500 nm (excitation at 400 nm) associated with production of 7-amino-4-trifluoromethyl coumarin. Concentrations of stock solutions of Z-GPR-afc were determined from measurements of absorbance at 380 nm of the 7-amino-4-trifluoromethyl coumarin produced upon complete hydrolysis of an aliquot of the stock solution by thrombin.
# Activity assays were performed by diluting a stock solution of substrate at least tenfold to a final concentration < 0.1 Km into a solution containing enzyme or enzyme equilibrated with inhibitor. Times required to achieve equilibration between enzyme and inhibitor were determined in control experiments. Initial velocities of product formation in the absence (Vo) or presence of inhibitor (Vi) were measured. […]
row,Ki [nM],SMILES
1,> 1,CCNC(=O)COc1ccc(Cl)cc1CNC(=O)Cn1c(C)cnc(NC(C)(C)C)c1=O
2,< 1,CCNC(=O)COc1ccccc1CNC(=O)Cn1c(C)cnc(NCCc2ccccc2)c1=O
3,> 1,Cc1nc(N)ccc1CNC(=O)Cn1c(C)cnc(NC(C)(C)Cc2ccccc2)c1=O
